# Reference: US20190359609A1, “BICYCLIC OGA INHIBITOR COMPOUNDS” (Janssen Pharmaceutica NV, priority 2016, published 2019)
# Amino acid sequences for entries named in this document (tags omitted).
# UniProt O60502, whole entry: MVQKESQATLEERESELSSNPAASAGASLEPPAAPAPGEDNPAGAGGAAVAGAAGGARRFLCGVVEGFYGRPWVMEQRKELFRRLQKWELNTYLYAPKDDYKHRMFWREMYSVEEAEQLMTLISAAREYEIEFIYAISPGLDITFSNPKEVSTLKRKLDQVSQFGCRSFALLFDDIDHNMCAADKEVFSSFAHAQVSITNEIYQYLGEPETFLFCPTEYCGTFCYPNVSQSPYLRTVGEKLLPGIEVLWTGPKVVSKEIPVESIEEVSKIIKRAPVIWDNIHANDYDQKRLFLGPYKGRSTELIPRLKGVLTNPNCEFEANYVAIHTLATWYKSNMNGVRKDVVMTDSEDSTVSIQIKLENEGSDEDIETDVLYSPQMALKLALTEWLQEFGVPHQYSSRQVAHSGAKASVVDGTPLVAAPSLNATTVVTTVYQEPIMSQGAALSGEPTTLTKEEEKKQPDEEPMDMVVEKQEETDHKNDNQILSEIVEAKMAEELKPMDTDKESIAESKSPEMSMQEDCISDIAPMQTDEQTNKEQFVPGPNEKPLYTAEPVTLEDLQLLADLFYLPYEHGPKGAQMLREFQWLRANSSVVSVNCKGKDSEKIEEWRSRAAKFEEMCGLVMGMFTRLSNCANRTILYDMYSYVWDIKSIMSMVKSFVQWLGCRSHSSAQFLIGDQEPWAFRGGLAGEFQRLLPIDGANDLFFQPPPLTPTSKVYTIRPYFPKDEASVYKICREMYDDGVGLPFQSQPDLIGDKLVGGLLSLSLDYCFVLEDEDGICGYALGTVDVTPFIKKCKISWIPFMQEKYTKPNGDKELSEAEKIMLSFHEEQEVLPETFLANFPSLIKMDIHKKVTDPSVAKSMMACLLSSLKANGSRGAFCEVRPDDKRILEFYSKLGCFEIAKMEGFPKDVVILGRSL
# How the values were obtained:
# [1] = biological target: OGA (Homo sapiens, UniProt O60502); assay: OGA cellular assay: ICC detection of O-GlcNAcylated proteins in HEK293 cells inducible for P301L mutant human Tau; settings: 6 hours incubation
# Method: HEK293 cells inducible for P301L mutant human Tau (isoform 2N4R) were established at Janssen. Thiamet-G was used for both plate validation (high control) and as reference compound (reference EC50 assay validation). OGA inhibition is evaluated through the immunocytochemical (ICC) detection of O-GlcNAcylated proteins by the use of a monoclonal antibody (CTD110.6; Cell Signaling, #9875) detecting O-GlcNAcylated residues as previously described (Dorfmueller et al. 2010 Chemistry & biology, 17:1250).
# Inhibition of OGA will result in an increase of 0-GlcNAcylated protein levels resulting in an increased signal in the experiment. Cell nuclei are stained with Hoechst to give a cell culture quality control and a rough estimate of immediate compounds toxicity, if any. ICC pictures are imaged with a Perkin Elmer Opera Phenix plate microscope and quantified with the provided software Perkin Elmer Harmony 4.1.
# Cells were propagated in DMEM high Glucose (Sigma, #D5796) following standard procedures. 2 days before the cell assay cells are split, counted and seeded in Poly-D-Lysine (PDL) coated 96-wells (Greiner, #655946) plate at a cell density of 12,000 cells per cm^2 (4,000 cells per well) in 100 μl of Assay Medium (Low Glucose medium is used to reduce basal levels of GlcNAcylation) (Park et al. 2014 The Journal of biological chemistry 289:13519). At the day of compound test medium from assay plates was removed and replenished with 90 μl of fresh Assay Medium. 10 μl of compounds at a 10fold final concentration were added to the wells. Plates were centrifuged shortly before incubation in the cell incubator for 6 hours. DMSO concentration was set to 0.2%. Medium is discarded by applying vacuum. For staining of cells medium was removed and cells washed once with 100 μl D-PBS (Sigma, #D8537). From next step onwards unless other stated assay volume was always 50 μl and incubation was performed without agitation and at room temperature. Cells were fixed in 50 μl of a 4% paraformaldehyde (PFA, Alpha aesar, #043368) PBS solution for 15 minutes at room temperature. […] Before analysis samples were washed 2 times manually for 5 minutes in ICC base buffer.
# Imaging is performed using Perkin Elmer Phenix Opera using a water 20× objective and recording 9 fields per well. Intensity readout at 488 nm is used as a measure of O-GlcNAcylation level of total proteins in wells. To assess potential toxicity of compounds nuclei were counted using the Hoechst staining. IC50-values are calculated using parametric non-linear regression model fitting. As a maximum inhibition Thiamet G at a 200 uM concentration is present on each plate. In addition, a concentration response of Thiamet G is calculated on each plate.
# [2] = biological target: recombinant human Meningioma Expressed Antigen 5 (MGEA5), also referred to as O-GlcNAcase (OGA) (Homo sapiens, UniProt O60502); assay: OGA biochemical assay: inhibition of FM-GlcNAc hydrolysis, fluorescence (protocol A 10 nM OGA, 1 h; protocol B 2 nM OGA, 6 h)
# Description: The assay is based on the inhibition of the hydrolysis of fluorescein mono-B-D-N-Acetyl-Glucosamine (FM-GlcNAc) (Mariappa et al. 2015, Biochem J 470:255) by the recombinant human Meningioma Expressed Antigen 5 (MGEA5), also referred to as 0-GlcNAcase (OGA). The hydrolysis FM-GlcNAc (Marker Gene technologies, cat # M1485) results in the formation of β-D-N-glucosamineacetate and fluorescein. The fluorescence of the latter can be measured at excitation wavelength 485 nm and emission wavelength 538 nm. An increase in enzyme activity results in an increase in fluorescence signal. Full length OGA enzyme was purchased at OriGene (cat # TP322411). The enzyme was stored in 25 mM Tris.HCl, pH 7.3, 100 mM glycine, 10% glycerol at −20° C. Thiamet G and GlcNAcStatin were tested as reference compounds (Yuzwa et al. 2008 Nature Chemical Biology 4:483; Yuzwa et al. 2012 Nature Chemical Biology 8:393). The assay was performed in 200 mM Citrate/phosphate buffer supplemented with 0.005% Tween-20. 35.6 g Na2HPO4 2 H2O (Sigma, # C0759) were dissolved in 1 L water to obtain a 200 mM solution. 19.2 g citric acid (Merck, #1.06580) was dissolved in 1 L water to obtain a 100 mM solution. pH of the sodiumphosphate solution was adjusted with the citric acid solution to 7.2. The buffer to stop the reaction consists of a 500 mM Carbonate buffer, pH 11.0. 734 mg FM-GlcNAc were dissolved in 5.48 mL DMSO to obtain a 250 mM solution and was stored at −20° C. OGA was used at a 10 nM (protocol A) or 2 nM (protocol B) concentration and FM-GlcNAc at a 100 uM final concentration. Dilutions were prepared in assay buffer.
# 50 nl of a compound dissolved in DMSO was dispensed on Black Proxiplate™ 384 Plus Assay plates (Perkin Elmer, #6008269) and 3 μl fl-OGA enzyme mix added subsequently. Plates were pre-incubated for 60 min at room temperature and then 2 μl FM-GlcNAc substrate mix added. […] Plates were briefly centrifuged for 1 min at 1000 rpm and incubate at room temperature for 1 h (10 nM OGA, protocol A) or 6 h (2 nM OGA, protocol B). To stop the reaction 5 μl STOP buffer were added and plates centrifuge again 1 min at 1000 rpm. Fluorescence was quantified in the Thermo Scientific Fluoroskan Ascent or the PerkinElmer EnVision with excitation wavelength 485 nm and emission wavelength 538 nm.
# For analysis a best-fit curve is fitted by a minimum sum of squares method. From this an IC50 value and Hill coefficient was obtained. High control (no inhibitor) and low control (saturating concentrations of standard inhibitor) were used to define the minimum and maximum values.
# [3] = Enzymatic protocol A (10 nM OGA, 1 h)
# [4] = Enzymatic protocol B (2 nM OGA, 6 h)
Cellular Emax (%) [1] [%],Cellular hOGA; pEC50 [1],"Enzymatic Emax (%) [2, 3] [%]","Enzymatic hOGA; pIC50 [2, 3]","Enzymatic Emax (%) [2, 4] [%]","Enzymatic hOGA; pIC50 [2, 4]",Structure (SMILES)
123.8,7.58,101.1,7.95,101.2,8.09,CC(=O)Nc1ncc(CN2CCCC(c3cc4ncccc4n3C)C2)s1 (racemic)
111.9,6.62,101.0,6.65,102.13,7.03,CC(=O)Nc1ncc(CN2CC[C@@H](C)[C@@H](c3cc4ncccc4[nH]3)C2)s1 (relative stereo)
90.5,8.06,–,–,99.7,8.15,"CC(=O)Nc1ncc(CN2CCCC(c3cc4ncccc4n3C)C2)s1 (single isomer, unassigned) [16]"
61.9,5.14,–,–,92.8,6.02,"CC(=O)Nc1ncc(CN2CCCC(c3cc4ncccc4n3C)C2)s1 (single isomer, unassigned) [17]"
